According to PubChem BioAssay AID652067 (The Scripps Research Institute Molecular Screening Center, 2013):
The list shows a part of the results, in another mix than the full data. The source made the active and inactive calls.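 The calls were made as follows: active = activation above the mean of all tested compounds plus 3 SD (cut at about 5.5% in these data); inactive = the rest.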

Test system: DAF-12 nuclear receptor (Haemonchus contortus)
Assay: H. contortus DAF-12 nuclear receptor activators, primary screen, cell-based, luminescence, HEK293, lit1-tk-luc reporter (AID 652067);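 also: 100% = response to 3 µM Δ7-dafachronic acid high control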
Settings: HEK293 hcDAF-12 lit1-tk-luc reporter, at 6.8 µM, hits give high values, 0% DMSO, 100% Δ7-dafachronic acid

SMILES	activation
COc1ccc(OP(C)(=O)Nc2ccc(Br)cc2)cc1 (stereo not given)	inactive: -1.44%
COc1ccccc1OP(C)(=O)Nc1c(C)n(C)n(-c2ccccc2)c1=O (stereo not given)	inactive: -0.92%
O=C(OCCCN1CCCC1)C(O)(c1ccccc1)C1CCCCC1 (stereo not given)	inactive: -0.23%
CP(=O)(Oc1ccccc1)N1CCOC1=O (stereo not given)	inactive: -1.01%
CCc1ccc(OP(C)(=O)Nc2cccnc2)cc1 (stereo not given)	inactive: 0.43%
Cc1c(NP(C)(=O)Oc2ccc(C(C)C)cc2)c(=O)n(-c2ccccc2)n1C (stereo not given)	inactive: -1.38%
O=[N+]([O-])c1cc([N+](=O)[O-])c(Nc2ccccn2)c([N+](=O)[O-])c1	inactive: -0.57%
CP(=O)(Nc1ccccn1)Oc1ccccc1 (stereo not given)	inactive: 1.89%
COc1ccccc1OP(C)(=O)Nc1ccc(C)cc1C (stereo not given)	inactive: -1.04%
CCc1ccc(OP(C)(=O)O)cc1	inactive: -0.3%
COc1ccccc1OP(C)(=O)Nc1ccc(Br)cc1 (stereo not given)	inactive: -0.77%
COc1ccc(OP(C)(=O)Nc2ccccn2)cc1 (stereo not given)	inactive: -0.28%
CN(C)CCOC(=O)C(O)(c1ccccc1)C1CCCC1 (stereo not given)	inactive: -1.66%
CCCCCCCCCCCCCCCC1C[N+](C)(C)CCOP(C)(=O)O1 (stereo not given)	inactive: -0.76%
CP(=O)(Nc1ccc(Cl)cc1Cl)Oc1ccccc1 (stereo not given)	inactive: 0.46%
CP(=O)(OCCOc1ccccc1)OCCOc1ccccc1	inactive: -1.37%
O=C1C(O)=C([N+](=O)[O-])C(=O)C(O)=C1[N+](=O)[O-]	inactive: 1.78%
Cc1cc(C)cc(OP(C)(=O)Nc2cccc(C(F)(F)F)c2)c1 (stereo not given)	inactive: -1.52%
COc1ccccc1OP(C)(=O)Nc1ccc(C)c(C)c1 (stereo not given)	inactive: -0.56%
COc1ccc(OP(C)(=O)Nc2ccccc2Br)cc1 (stereo not given)	inactive: 1.22%
